# Source: patent publication US20260207519A1, “ISOLATED TARGETED DELIVERY SYSTEM FOR THE TREATMENT OF OVARIAN CANCER” (CELLIS SP. Z O.O. [LTD.], priority 2022, published 2026)
# Test system: SKOV-3_luc tumors
# Test: 1st in vivo study: SKOV-3_luc tumors implanted orthotopically
# Set-up: species or system female Balb/c nude mice
# Settings: day 42, supine images; one-Way ANOVA with Tukey's post-hoc test
substance,measurement,value
Trastuzumab,BLI values vs vehicle,significantly smaller
